Measured values: ChEMBL document CHEMBL6134906, “Design, Synthesis, and Biological Evaluation of Selective STING Synergists That Enhance cGAMP-STING Pathway Activation without Inherent Agonist Activity” (J Med Chem, 2025)

By UniProt entry, the sequences of proteins in these tests, tags left out. Where a name states a change or a piece, a line headed by the entry shows the natural chain unless it says otherwise.
UniProt Q86WV6: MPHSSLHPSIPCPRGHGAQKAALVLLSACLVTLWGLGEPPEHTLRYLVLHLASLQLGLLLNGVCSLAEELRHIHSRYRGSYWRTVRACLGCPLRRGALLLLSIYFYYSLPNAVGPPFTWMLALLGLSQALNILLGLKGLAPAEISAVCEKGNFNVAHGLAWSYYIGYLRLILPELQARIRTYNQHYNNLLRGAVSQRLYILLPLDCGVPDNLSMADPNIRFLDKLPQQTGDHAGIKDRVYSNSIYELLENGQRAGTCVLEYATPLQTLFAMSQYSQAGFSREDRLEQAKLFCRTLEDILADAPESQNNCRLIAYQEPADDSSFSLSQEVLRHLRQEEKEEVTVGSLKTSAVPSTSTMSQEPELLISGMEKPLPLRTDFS

Key:
[1] = target: T1, Stimulator of interferon genes protein (Mus musculus) (UniProt Q3TBT3); assay: Potentiation of cGAMP-induced mouse STING pathway activation expressed in HEK293 cells assessed as fold change in cGAMP EC50 at 33 uM incubated for 48 hrs by QUANTI-Blue solution based spectrophotometric analysis relative to cGAMP alone; assay type: cell-based; settings: filed as agonist
T1 sequence (whole entry): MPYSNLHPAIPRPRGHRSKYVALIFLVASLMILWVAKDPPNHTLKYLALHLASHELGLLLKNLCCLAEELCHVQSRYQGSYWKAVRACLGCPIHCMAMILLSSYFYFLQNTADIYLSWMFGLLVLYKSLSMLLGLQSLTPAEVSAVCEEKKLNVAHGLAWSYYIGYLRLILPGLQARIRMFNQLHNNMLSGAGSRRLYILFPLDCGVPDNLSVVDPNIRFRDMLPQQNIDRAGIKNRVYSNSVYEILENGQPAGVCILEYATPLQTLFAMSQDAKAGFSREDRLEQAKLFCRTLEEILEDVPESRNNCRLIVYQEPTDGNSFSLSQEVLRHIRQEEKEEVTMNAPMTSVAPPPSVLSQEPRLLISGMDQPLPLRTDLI

[2] = target: T1, Stimulator of interferon genes protein (Mus musculus); assay: Agonist activity at mouse STING expressed in HEK293 cells assessed as SEAP production at 100 uM incubated for 48 hrs by QUANTI-Blue solution based spectrophotometric analysis; assay type: cell-based
[3] = target: T1, Stimulator of interferon genes protein (Mus musculus); assay: Potentiation of cGAMP-induced mouse STING pathway activation expressed in HEK293 cells assessed as fold change in cGAMP EC50 at 100 uM incubated for 48 hrs by QUANTI-Blue solution based spectrophotometric analysis relative to cGAMP alone; assay type: cell-based; settings: filed as agonist
[4] = target: T1, Stimulator of interferon genes protein (Mus musculus); assay: Potentiation of cGAMP-induced mouse STING pathway activation expressed in HEK293 cells assessed as leftward shift in cGAMP agonist curve at 33 to 100 uM incubated for 48 hrs by QUANTI-Blue solution based spectrophotometric analysis; assay type: cell-based; settings: filed as agonist, dose 33-100 µM
[5] = target: T1, Stimulator of interferon genes protein (Mus musculus); assay: Potentiation of cGAMP-induced mouse STING pathway activation expressed in HEK293 cells assessed as fold change in cGAMP EC80 at 100 uM incubated for 48 hrs by QUANTI-Blue solution based spectrophotometric analysis relative to cGAMP alone; assay type: cell-based; settings: filed as agonist
[6] = target: T1, Stimulator of interferon genes protein (Mus musculus); assay: Potentiation of cGAMP-induced mouse STING pathway activation expressed in HEK293 cells assessed as fold change in cGAMP EC80 at 33 uM incubated for 48 hrs by QUANTI-Blue solution based spectrophotometric analysis relative to cGAMP alone; assay type: cell-based; settings: filed as agonist
[7] = target: T2, Stimulator of interferon genes protein (Homo sapiens, UniProt Q86WV6); assay: Potentiation of cGAMP-induced human STING pathway activation expressed in HEK293 cells assessed as SEAP production at 500 nM incubated for 48 hrs by QUANTI-Blue solution based spectrophotometric analysis; assay type: cell-based; settings: filed as agonist
[8] = target: T2, Stimulator of interferon genes protein; assay: Agonist activity at STING in human THP1-Dual KI-hSTING-R232 cells incubated for 24 hrs by reporter assay; assay type: cell-based
[9] = target: T2, Stimulator of interferon genes protein; assay: Potentiation of cGAMP-induced STING pathway activation in human THP1-Dual KI-hSTING-R232 cells incubated for 24 hrs by reporter assay; assay type: cell-based
[10] = target: T2, Stimulator of interferon genes protein; assay: Potentiation of cGAMP-induced STING pathway activation in human THP1-Dual KO-STING cells incubated for 24 hrs by reporter assay; assay type: cell-based
[11] = target: T2, Stimulator of interferon genes protein; assay: Potentiation of cGAMP-induced STING pathway activation in human THP1-Dual KI-hSTING-R232 cells assessed as fold change at 25 uM incubated for 24 hrs by reporter assay relative to cGAMP; assay type: cell-based; settings: filed as agonist
[12] = target: T2, Stimulator of interferon genes protein; assay: Potentiation of cGAMP-induced human STING pathway activation expressed in HEK293 cells assessed as SEAP production at 25 uM incubated for 48 hrs by QUANTI-Blue solution based spectrophotometric analysis; assay type: cell-based; settings: filed as agonist
[13] = system: THP1-Dual KO-STING; assay: Induction of IL6 release in human THP1-Dual KO-STING cells at 6.25 microg/ml incubated for 48 to 72 hrs by HTRF ImmunoFactor kit analysis; assay type: functional, cell-based; settings: dose 6.25 µg/ml, time 48-72 hrs
[14] = system: THP1-Dual KO-STING; assay: Induction of CXCL-10 release in human THP1-Dual KO-STING cells at 6.25 microg/ml incubated for 48 to 72 hrs by HTRF ImmunoFactor kit analysis; assay type: functional, cell-based; settings: dose 6.25 µg/ml, time 48-72 hrs
[15] = system: THP1-Dual KO-STING; assay: Induction of IFN-gamma release in human THP1-Dual KO-STING cells at 6.25 microg/ml incubated for 48 to 72 hrs by HTRF ImmunoFactor kit analysis; assay type: functional, cell-based; settings: dose 6.25 µg/ml, time 48-72 hrs
[16] = system: B16-F10; assay: Antitumor activity against mouse B16-F10 cells implanted in male C57BL/6 syngeneic mouse model assessed as reduction in tumor volume at 0.5 mg/kg, IT administered on days 7, 10 and 13; assay type: functional, organism-based; settings: time 7.0 day

Row | fold change (FC) [1] | Activity [2] | fold change (FC) [3] | Activity [4] | fold change (FC) [5] | fold change (FC) [6] | SMILES | also measured
1 | 1.34 | inactive | 3.05 | Active | 1.47 | 1.03 | COc1cc2c(=O)c3cc(C)cc(C(=O)O)c3[nH]c2c(C)c1C | –
2 | 1.53 | inactive | 2.06 | Active | 1.99 | 1.07 | CCOC(=O)Cn1c2ccc(OC)cc2c(=O)c2cc(OC)c(C)c(C)c21 | –
3 | – | – | – | – | – | – | CC1(C)C(=O)N(Cc2c(F)cccc2Cl)c2cc(C(=O)NCc3c(F)cc(F)cc3F)ccc21 | Activity [7]: Active
4 | – | – | – | – | – | – | Cc1ccc2c(=O)c3cccc(CC(=O)O)c3oc2c1C | Activity [8]: inactive; Activity [9]: inactive
5 | – | – | – | – | – | – | COc1ccc2[nH]c3c(C)c(C)ccc3c(=O)c2c1 | Activity ([9]; filed as agonist): Active; Activity [10]: inactive; fold change (FC) [11]: 2.72; Activity [12]: Active
6 | – | – | – | – | – | – | Nc1nc2c(ncn2[C@@H]2O[C@@H]3COP(=O)(O)O[C@H]4[C@@H](O)[C@H](n5cnc6c(N)ncnc65)O[C@@H]4COP(=O)(O)O[C@@H]2[C@@H]3O)c(=O)[nH]1 | Activity [13]: inactive; Activity [14]: inactive; Activity [15]: inactive; Activity [16]: Active

The source made the active and inactive calls. The rule behind the calls is not given here.
